Marks after values point to notes of the source that are not given here.
Columns and labels:
C57BL/6J mice = assay: Antifeeding activity (high fat diet intake up to 4 hours); format: in vivo; conditions: Mus musculus, male C57BL/6J mice, 5 mg/kg oral, food ingested up to 4 hours, read-out: Antifeeding rate (5 mg/kg)
ICR mice = assay: Triglyceride (TG) in blood plasma increase-inhibiting action due to lipid administration; conditions: Mus musculus, po, 2 h, read-out: Inhibiting rate of TG-increase in blood plasma (5 mg/kg)
KK-Ay mice = assay: Weight gain-inhibiting action, hypoglycemic effect, insulin in blood plasma lowering action in KK-Ay mice

Row | Structure (SMILES) | inhibition in vivo at 5 mg/kg (C57BL/6J mice) | inhibition in vivo at 5 mg/kg (ICR mice) | Weight gain-inhibiting action (KK-Ay mice; male KK-Ay mice, high fat diet, administration dose of 1 mg/kg/day oral, 2 weeks) | inhibition in vivo at 30 mg/kg (KK-Ay mice; Mus musculus, po, 336 h, read-out: Weight gain-inhibiting action (30 mg/kg/day))
1 | CC(C)(COc1ccc(-c2ccc(-c3nc(C(F)(F)F)c[nH]3)cn2)cc1)C(=O)O [2,2-dimethyl-3-[4-[5-[4-(trifluoromethyl)-1H-imidazol-2-yl]-2-pyridyl]phenoxy]propanoic acid] | 66% | 72% | 35%* | 
2 | CC(C)(COc1ccc(-c2ccc(-c3ncc(C(F)(F)F)[nH]3)cn2)cc1)C(=O)O [Example 1-3), 2,2-dimethyl-3-(4-{5-[5-(trifluoromethyl)-1H-imidazol-2-yl]pyridin-2-yl}phenoxy)propanoic acid] |  | 77% |  | 67%
3 | CC(C)(COc1ccc(-c2ccc(-c3ncc(C4CCC4)[nH]3)cn2)cc1)C(=O)O [Example 55-2), 3-[4-[5-(5-cyclobutyl-1H-imidazol-2-yl)-2-pyridyl]phenoxy]-2,2-dimethylpropanoic acid] |  | 60% |  | 
